Results taken from patent US20040102454A1, “Phenylahistin and the phenylahistin analogs, a new class of anti-tumor compounds” (priority 1998, published 2004).

Test system: tubulin in Human umbilical vein endothelial cells (HuVEC)
Assay: Action on microtubule function, staining for α-tubulin
Format: cell-based
Details: 2 μM, thirty minutes exposure

COc1cc2c(c(OC)c1OC)-c1ccc(OC)c(=O)cc1[C@@H](NC(C)=O)CC2 [colchicine]
microtubule depolymerization: induced microtubule depolymerization
